This assay has as its target Nociceptin receptor (Cavia porcellus, UniProt P47748). Briefly: Displacement of radiolabeled NalBzOH from kappa3 opioid receptor in Hartley guinea pig brain.

By UniProt entry, the sequences of proteins in these tests, tags left out. Where a name states a change or a piece, a line headed by the entry shows the natural chain unless it says otherwise.
UniProt P47748: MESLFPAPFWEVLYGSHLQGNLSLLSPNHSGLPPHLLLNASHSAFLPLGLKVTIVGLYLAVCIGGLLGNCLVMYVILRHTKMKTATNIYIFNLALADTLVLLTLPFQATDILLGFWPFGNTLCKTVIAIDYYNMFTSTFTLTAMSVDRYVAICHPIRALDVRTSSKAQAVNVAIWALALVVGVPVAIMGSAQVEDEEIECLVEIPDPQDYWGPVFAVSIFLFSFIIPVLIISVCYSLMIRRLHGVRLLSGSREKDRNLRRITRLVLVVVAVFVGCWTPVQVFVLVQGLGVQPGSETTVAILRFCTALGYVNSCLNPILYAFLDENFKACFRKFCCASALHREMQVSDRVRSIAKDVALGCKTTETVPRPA

Molecules are shown by their SMILES.

Broadly, the Ki is the equilibrium dissociation constant of an inhibitor or competing ligand from its target. High values mean a looser hold on the target, low ones a stronger hold on the target. In turn, `CN(C(=O)Cc1ccccc1)[C@H]1C[C@@]2(CCCO2)CC[C@@H]1N1CCCC1` registered an inhibitory constant (Ki) of 1100 nM.

These data come from BindingDB's records for 16777416 (2006).
